# Compound activity deposited in PubChem by several laboratories.
# MC4R barr agon = activates human MC4R beta-arrestin recruitment. P32245. U2OS MC4R beta-arrestin complementation, luminescence; percent of melanotan II response, DMSO zero. activation, % at 8.9 µM. 360,000 tested, 0.98% active. AID 540308;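 active = activation above a per-plate cutoff, the mean activation of sample wells on that plate plus 3 SD, cut at about 8% in these data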
# NRP1-CendR mod = NRP-1/CendR interaction modulation. O14786. FAM-RPARPAR peptide binding to NRP-1, fluorescence polarization. inhibition, % at 25 µM. 360,000 tested, 0.85% active. AID 602438;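 active = inhibition or corrected inhibition above about 18%, plus a signal ratio from 0.5 to 1.5, limit read from the data, passing the limit was not always enough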
# MC4R antagonist = antagonists of human melanocortin 4 receptor (MC4R); P32245; MC4R-expressing cells, MTII-stimulated cAMP, LANCE TR-FRET; inhibition, % at 6.5 µM; 360,000 tested, 0.48% active; AID 540295;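 active = inhibition above its plate's cutoff, the mean of tested wells on that plate plus 3 SD, cut at about 29% in these data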;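 also: 0% = Melanotan II alone and 100% = Melanotan II plus saturating MCL0020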
#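 System – human MC4R-expressing U2OS cells · Also added – Melanotan II · Dosing – one concentration, 6.5 µM nominal · Timing – 30-min compound, 1-h challenge, 1-h detection, room temperature · Measured by – Eu-cAMP/anti-cAMP TR-FRET, emission 671 nm · Replicates – singlicate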
# ARFGAP1 inhibitor = inhibits rat ARF GTPase activating protein 1 | 360,000 tested, 0.26% active | Arfgap1-stimulated ARF1 GTP hydrolysis, GDP FP detection | AID 651572 | inhibition, % at 16.5 µM;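 active = inhibition above a per-plate limit, mean inhibition of low control wells plus 3 SD, cut at about 25% in these data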;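 also: 0% = DMSO wells with enzyme and 100% = wells lacking Arfgap1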
#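 Assay system: Rat Arfgap1 GAP domain (His6, aa 1-136), purified enzyme | Buffer or medium: HEPES 25 mM pH 7.5, NaCl 150 mM, MgCl2, DTT | Schedule: GTP hydrolysis reaction 2 h at 25 °C | Signal: FP of antibody-bound GDP Alexa 633 tracer, ex 620/em 688 nm | Measure: Percent inhibition of Arfgap1-stimulated GTP hydrolysis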
# ASAP1 inh = blocks human ASAP1-stimulated Arf1 GTP hydrolysis; AID 624377; GDP FP detection; 360,000 tested, 0.19% active; Q9ULH1; inhibition, % at 16.5 µM; in the data active = inhibition above about 25%;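 also: 0% = vehicle with enzyme and substrate and 100% = no enzyme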
# UUG fidelity = alters start codon recognition fidelity in yeast. S. cerevisiae UUG-firefly luciferase reporter, luminescence/redox ratio. 350,000 tested, 0.13% active. activity score, % at 18.7 µM. AID 602363;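 active means replicate mean at a twofold rise or more, about +100% in these data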;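 further: firefly luciferase made from a UUG start codon reports start codon fidelity; reporter light over untreated wells divided by growth signal over untreated wells; some hits fall short of that in this replicate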
# * hit, by the source's call; x = no result; ! = not confirmed by another sample. Compounds with a hit are over-represented: about 2.3% of the library has one in this group of screens.
# Values in the order: MC4R barr agon	NRP1-CendR mod	MC4R antagonist	ARFGAP1 inhibitor	ASAP1 inh	UUG fidelity
> C[C@@H]1CN([C@H](C)CO)C(=O)c2cc(NS(=O)(=O)c3ccccc3)ccc2O[C@@H]1CN(C)Cc1ccc2c(c1)OCO2
    x	x	x	x	x	-4
> Oc1c(Cl)cccc1C=Nc1cc(C(F)(F)F)ccc1N1CCCC1
    0	5	-4	1	8	-12
> Oc1c(Cl)cc(Cl)cc1C=Nc1cc(C(F)(F)F)ccc1N1CCc2ccccc2C1
    -1	-9	29*	6	-4	-17
> O=[N+]([O-])c1ccc(Cl)c2c1C1C=CCC1C(c1ccccn1)N2 (centres undefined)
    1	28*	4	-10	6	x
> CCOC(=O)/C=C/COc1ccccc1[N+](=O)[O-]
    2	28*	-5	6	-10	x
> COc1ccc(NC(=O)Nc2ccc3c(c2)C(=O)N([C@H](C)CO)C[C@@H](C)[C@@H](CN(C)S(C)(=O)=O)O3)cc1
    x	x	x	x	x	3
> C[C@@H]1CN([C@@H](C)CO)C(=O)c2cc(NC(=O)Nc3ccccc3)ccc2O[C@H]1CN(C)C(=O)Nc1ccccc1
    x	x	x	x	x	-6
> COc1cccc(/C(O)=C2/C(=O)C(=O)N(CCN(C)C)C2c2ccc(Br)cc2)c1 (centres undefined)
    1	20*	2	-3	-6	-2
> C[C@@H]1CN([C@@H](C)CO)S(=O)(=O)c2ccc(C3=CCCC3)cc2O[C@H]1CN(C)S(=O)(=O)c1ccc(F)cc1
    x	x	x	x	x	-18
> Cc1ccc(S(=O)(=O)/N=S(/C)c2ccccc2)cc1 (centres undefined)
    0	32*	4	2	6	-4

# In the list so far, 2 have an aryl methoxy group.
# Values in the order: MC4R barr agon	NRP1-CendR mod	MC4R antagonist	ARFGAP1 inhibitor	ASAP1 inh	UUG fidelity
> COc1ccc(NC(=O)Nc2ccc3c(c2)C(=O)N([C@H](C)CO)C[C@@H](C)[C@@H](CN(C)S(C)(=O)=O)O3)cc1
    x	x	x	x	x	3
> COc1cccc(/C(O)=C2/C(=O)C(=O)N(CCN(C)C)C2c2ccc(Br)cc2)c1 (centres undefined)
    1	20*	2	-3	-6	-2

# Exported as labelled records: 3 of the compounds above.
Oc1c(Cl)cccc1C=Nc1cc(C(F)(F)F)ccc1N1CCCC1
- MC4R barr agon: 0
- NRP1-CendR mod: 5
- MC4R antagonist: -4
- ARFGAP1 inhibitor: 1
- ASAP1 inh: 8
- UUG fidelity: -12
Oc1c(Cl)cc(Cl)cc1C=Nc1cc(C(F)(F)F)ccc1N1CCc2ccccc2C1
- MC4R barr agon: -1
- NRP1-CendR mod: -9
- MC4R antagonist: 29*
- ARFGAP1 inhibitor: 6
- ASAP1 inh: -4
- UUG fidelity: -17
O=[N+]([O-])c1ccc(Cl)c2c1C1C=CCC1C(c1ccccn1)N2 (centres undefined)
- MC4R barr agon: 1
- NRP1-CendR mod: 28*
- MC4R antagonist: 4
- ARFGAP1 inhibitor: -10
- ASAP1 inh: 6
- UUG fidelity: x

# The listing continues:
# Values in the order: MC4R barr agon	NRP1-CendR mod	MC4R antagonist	ARFGAP1 inhibitor	ASAP1 inh	UUG fidelity
> CC(NC(=S)NCCCN1CCOCC1)C12CC3CC(CC(C3)C1)C2 (centres undefined)
    1	27*	2	-2	5	x
> S=C(NCCCN1CCOCC1)NCCCN1CCOCC1
    1	-2	-2	-1	-6	-20
> C[C@@H]1CN([C@@H](C)CO)C(=O)c2cc(NC(=O)NC3CCCCC3)ccc2O[C@@H]1CN(C)Cc1ccc(Oc2ccccc2)cc1
    x	x	x	x	x	5
> C[C@H](CO)N1C[C@H](C)[C@H](CN(C)Cc2ccncc2)Oc2cc(C#C[C@@H](C)O)ccc2S1(=O)=O
    x	x	x	x	x	-2
> O=C(C1=COCCO1)N1CCN(c2nc3ccc([N+](=O)[O-])cc3s2)CC1
    -3	6	1	10	28*	-17
> CSc1ccccc1NC(=O)CSc1n[nH]c(C)c1[N+](=O)[O-]
    0	27*	19	-4	9	x
> Cc1ccc(O)c(NC(=O)CSc2n[nH]c(C)c2[N+](=O)[O-])c1
    2	0	11	-4	4	x
> CCC(=O)Nc1ccc2c(c1)C(=O)N(C)[C@H]1CC[C@H](CC(=O)N3CCc4ccccc4C3)O[C@@H]1CO2
    x	x	x	x	x	-14
> O=C1N/C(=N/N=C/c2ccco2)SC1Cc1ccccc1 (centres undefined)
    -2	4	7	2	-10	-19
> O=C1C(Cc2ccccc2)S/C(=N/N=C/c2ccco2)N1c1ccccc1 (centres undefined)
    8.4*	20	7	4	-2	-10
> O=C(CNc1ccccc1OC(F)F)N1CCc2ccccc21
    8.3*	1	-1	-5	5	x
> Cc1cc(N2CCCC2=O)ccc1S(=O)(=O)N1CCOCC1
    -1	5	7	0	3	-8
> Cc1cc(N2CCCC2=O)ccc1S(=O)(=O)NC1CCCCC1
    -1	21*	-8	-12	-9	-11
> Cc1cc[n+](-c2[nH]c(=O)sc2/C=N/NC([S-])=Nc2ccccc2)cc1C
    -2	35*	-21	-1	4	-40
> CC(C)(C)c1cc[n+](-c2[nH]c(=O)sc2/C=N/NC([S-])=Nc2ccccc2)cc1
    -1	54*	0	14	10	-23
> COc1ccc(CN(C)C[C@@H]2OCCCC[C@H](C)Oc3ccc(NS(=O)(=O)c4cn(C)cn4)cc3C(=O)N([C@@H](C)CO)C[C@H]2C)cc1
    x	x	x	x	x	9
> COC(=O)C1=C(C)NC(C)=C(C(=O)OC)C1C(=O)OC(C)C(=O)c1ccccc1 (centres undefined)
    -1	25*!	5	5	2	-2
> O=C(CCCOc1ccc(Cl)cc1Cl)N1CCc2ccccc2C1
    -1	29*	2	-6	11	-5
> O=C(CCCOc1ccccc1)N1CCc2ccccc2C1
    -1	-4	4	3	0	0
> O=C(CSc1nccn1Cc1ccc(F)cc1)NC1CCCCC1
    -1	25*	5	-2	-3	-13
> Cc1c(S(=O)(=O)N2CCCC(C(=O)O)C2)cnn1C (centres undefined)
    -2	22*	-6	-7	1	-4
> O=C(O)[C@@H]1CCCN(S(=O)(=O)c2cccc3cccnc23)C1
    0	26*	8	-4	0	1
> Cc1nn(C)cc1S(=O)(=O)N1CCCC(C(=O)O)C1 (centres undefined)
    0	-3	7	-9	4	-19
> C[C@@H]1CCCCO[C@H](CN(C)Cc2ccncc2)[C@H](C)CN([C@@H](C)CO)C(=O)c2cc(NC(=O)Cc3ccccc3)ccc2O1
    x	x	x	x	x	-5
> C[C@@H]1CN([C@H](C)CO)C(=O)c2cc(NC(=O)CCC(F)(F)F)ccc2O[C@H]1CN(C)S(=O)(=O)c1ccccc1
    x	x	x	x	x	12
> CCOc1ccccc1C1CC(=O)NC2=C1C(=O)CC(C)(C)C2 (centres undefined)
    -1	26*	3	-1	7	5
> CCOc1ccccc1C1CC(=O)Nc2cc(OC)c(OC)cc21 (centres undefined)
    -2	7	16	-8	6	-9
> CC1C(=O)CC(c2ccccc2)N(C)C1c1ccccc1 (centres undefined)
    9.1*	-8	5	-2	3	-5
> CO[C@@H]1CN(C)C(=O)c2cc(NC(=O)C3CCCC3)ccc2OC[C@@H](C)N(C)C[C@@H]1C
    x	x	x	x	x	13
> CO[C@H]1CN(C)C(=O)c2cc(NC(C)=O)ccc2OC[C@@H](C)N(C(=O)c2ccccn2)C[C@@H]1C
    x	x	x	x	x	0
> O=C(CCl)N(CCCNC(=O)C(F)(F)F)c1ccc([N+](=O)[O-])cc1
    13*	13	8	5	-3	5
> O=C(NCCCNc1ccc([N+](=O)[O-])cc1)C(F)(F)F
    -3	-10	2	18	-4	x
> COC(=O)C[C@@H]1CC[C@@H]2[C@H](COc3ccc(NC(=O)c4cnccn4)cc3C(=O)N2C)O1
    x	x	x	x	x	-13
> CC(=O)n1cc(N(C(=O)CCl)c2ccc([N+](=O)[O-])cc2)c2ccccc21
    2	8	32*	-3	-5	-19
